{"sequences": {"note": "Sequences of proteins named here, by UniProt entry; tags and fusion partners are left off.", "UniProt P33261, whole entry": "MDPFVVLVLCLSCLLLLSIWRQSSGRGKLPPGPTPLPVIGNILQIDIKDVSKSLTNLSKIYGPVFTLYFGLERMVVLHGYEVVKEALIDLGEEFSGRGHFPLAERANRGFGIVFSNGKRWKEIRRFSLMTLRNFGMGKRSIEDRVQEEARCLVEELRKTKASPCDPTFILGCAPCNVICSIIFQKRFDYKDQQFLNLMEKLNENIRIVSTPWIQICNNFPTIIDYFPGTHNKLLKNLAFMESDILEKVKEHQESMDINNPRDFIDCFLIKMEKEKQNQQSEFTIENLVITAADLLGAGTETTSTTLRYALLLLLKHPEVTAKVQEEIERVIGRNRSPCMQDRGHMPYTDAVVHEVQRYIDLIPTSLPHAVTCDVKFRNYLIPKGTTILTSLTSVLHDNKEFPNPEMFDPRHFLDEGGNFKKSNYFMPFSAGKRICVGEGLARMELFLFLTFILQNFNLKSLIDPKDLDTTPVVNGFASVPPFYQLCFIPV"}, "source": "paper PMC12508063", "about": "“Chloroindazole based estrogen receptor β ligands with favorable pharmacokinetics promote functional remyelination and visual recovery” (Scientific Reports, 2025)", "target": "CYP2C19 (Homo sapiens, UniProt P33261)", "experiment": "CYP inhibition", "conditions": "test compounds at 10 μM; substrate Mephenytoin", "data": [{"compound": "N[C@@H]1C[C@H]1c1ccccc1", "note": "(racemic) [Tranylcypromine]", "values": [{"measurement": "CYP Inhibition Percentage CYP2C19", "value": 83.95, "unit": "%"}]}]}
